# Data: PMC7586935 (Journal of Clinical Pharmacology, 2020)
# System: QTcF interval of healthy volunteers
# Assay: Time-matched analysis of placebo-adjusted change from baseline QTcF
# Type: in vivo, human
# Conditions: moxifloxacin 400 mg
smiles,measurement,setting,value
COc1c(N2C[C@@H]3CCCN[C@@H]3C2)c(F)cc2c(=O)c(C(=O)O)cn(C3CC3)c12 [Moxifloxacin],"Placebo-adjusted change from baseline QTcF, estimate (90%CI)","N = 17, 5 min postdose",2.5 (–1.9 to 7.0) ms
same,"Placebo-adjusted change from baseline QTcF, estimate (90%CI)","N = 17, 10 min postdose",1.6 (–1.9 to 5.0) ms
same,"Placebo-adjusted change from baseline QTcF, estimate (90%CI)","N = 17, 20 min postdose",1.0 (–3.5 to 5.5) ms
same,"Placebo-adjusted change from baseline QTcF, estimate (90%CI)","N = 17, 0.5 h postdose",6.7 (2.6–10.8) ms
same,"Placebo-adjusted change from baseline QTcF, estimate (90%CI)","N = 17, 0.75 h postdose",13.0 (8.8–17.2) ms
same,"Placebo-adjusted change from baseline QTcF, estimate (90%CI)","N = 17, 1 h postdose",11.9 (8.3–15.6) ms
same,"Placebo-adjusted change from baseline QTcF, estimate (90%CI)","N = 17, 1.5 h postdose",12.2 (7.5–16.9) ms
same,"Placebo-adjusted change from baseline QTcF, estimate (90%CI)","N = 17, 2 h postdose",14.5 (9.7–19.4) ms
same,"Placebo-adjusted change from baseline QTcF, estimate (90%CI)","N = 17, 3 h postdose",13.9 (8.9–19.0) ms
same,"Placebo-adjusted change from baseline QTcF, estimate (90%CI)","N = 17, 4 h postdose",15.0 (10.3–19.7) ms
same,"Placebo-adjusted change from baseline QTcF, estimate (90%CI)","N = 17, 6 h postdose",9.1 (5.0–13.2) ms
same,"Placebo-adjusted change from baseline QTcF, estimate (90%CI)","N = 17, 8 h postdose",10.1 (6.6–13.7) ms
same,"Placebo-adjusted change from baseline QTcF, estimate (90%CI)","N = 17, 12 h postdose",10.0 (5.4–14.7) ms
same,"Placebo-adjusted change from baseline QTcF, estimate (90%CI)","N = 17, 16 h postdose",8.6 (4.6–12.6) ms
same,"Placebo-adjusted change from baseline QTcF, estimate (90%CI)","N = 17, 24 h postdose",7.1 (3.6–10.6) ms
